{
  "source": "paper PMC4803553",
  "about": "(Endocrinology and Metabolism, 2016)",
  "origin": "cited, not measured here",
  "conditions": "cited from earlier work",
  "data": [
    {"smiles": "N#C[C@@H]1CCCN1C(=O)CNC12CC3CC(CC(O)(C3)C1)C2", "note": "[Vildagliptin, vildagliptin]", "values": [
      {"measurement": "Fraction of the drug excreted as a metabolite through the kidneys", "result": "about two-thirds"}
    ]}
  ]
}
